# Measurements taken from ChEMBL document CHEMBL3526020, “Significance of peptide transporter 1 in the intestinal permeability of valacyclovir in wild-type and PepT1 knockout mice” (Drug Metab Dispos, 2013).
# Tested on: Homo sapiens
# Test: Oral bioavailability in human assessed as acyclovir level
# Assay type: ADME, organism-based
# Conditions: in vivo
smiles,measurement,value
CC(C)[C@H](N)C(=O)OCCOCn1cnc2c(=O)[nH]c(N)nc21.Cl [VALACYCLOVIR HYDROCHLORIDE],F,54%
